Assay results as given in PubChem BioAssay AID488862 (Broad Institute, 2010).
The list shows a part of the results, in another mix than the full data. Some results for these compounds are left out of this collection, so the calls shown say nothing about other tests. Active and inactive are the calls of the source. Cut-off read from the data, not from the text of the source: active = inhibition above about 52%; inactive = the rest.

Experiment: inhibition of PrP 5' UTR reporter expression (AID 488862); note: 0 = median of the neutral control wells
Conditions: cell-based PrP 5' UTR mRNA reporter, plate reader; hits give high values; concentration not given here
For `CC(C)N1C(=O)CC2(CCN(CCOC(=O)C(O)(c3ccccc3)c3ccccc3)CC2)C1=O`, the inhibition was inactive: -17.3%. For `CCN(CC)CC(C)C(C)OC(=O)C(O)(c1ccccc1)c1ccccc1` (stereo not given), the inhibition was inactive: -0.48%. With `COc1cc(SC)ccc1C(=O)NCC1(N(C)C)CCCCC1` the inhibition was inactive: -23.9%. In the case of `Cc1ccc(C(=O)NCC2(N3CCCCC3)CCCCC2)cc1`, the inhibition is reported as inactive: -9.65%. For `O=C(NCC1(N2CCCCC2)CCCCC1)c1cc([N+](=O)[O-])ccc1Cl`, the inhibition was inactive: 15.2%. In the case of `CN1[C@@H]2CC[C@H]1CC(OC(=O)C(O)(c1ccccc1)c1ccccc1)C2` (stereo not given in full), the inhibition is reported as inactive: -17%. In the case of `C=CCN1CCN(CCOC(=O)C(O)(c2ccccc2)c2ccccc2)CC1`, the inhibition is reported as inactive: -9.51%. For `O=C(NCC1(N2CCCCC2)CCCCC1)c1cc(F)c(F)cc1Cl`, the inhibition was inactive: -18.5%. For `CCN1CCCC(OC(=O)C2(O)c3ccccc3C=Cc3ccccc32)C1` (stereo not given), the inhibition was inactive: -9.34%. For `Cc1cc(C(=O)NCC2(N3CCCCC3)CCCCC2)ccc1[N+](=O)[O-]`, the inhibition was inactive: -10%. With `O=C(NCC1(N2CCCCC2)CCCCC1)c1cccc(Br)c1` the inhibition was inactive: -14.4%. With `COc1ccc(C(=O)NCC2(N(C)C)CCCCC2)cc1` the inhibition was inactive: -17.9%. In the case of `Cc1ccccc1C(=O)NCC1(N2CCCCC2)CCCCC1`, the inhibition is reported as inactive: -23.7%. In the case of `CN(C)c1ccc(C(=O)NCC2(N(C)C)CCCCC2)cc1`, the inhibition is reported as inactive: -18.4%. For `CN(C)C1CCCC1OC(=O)C(O)(c1ccccc1)c1ccccc1` (stereo not given), the inhibition was inactive: -10.6%. For `COc1cccc(C(=O)NCC2(N3CCCCC3)CCCCC2)c1`, the inhibition was inactive: -19.5%. In the case of `COc1ccc(Cl)cc1C(=O)NCC1(N(C)C)CCCCC1`, the inhibition is reported as inactive: -11.3%. With `O=C(NCC1(N2CCCCC2)CCCCC1)c1cccc(Cl)c1` the inhibition was inactive: 6.84%. With `CN(C)C1(CNC(=O)c2ccc(Br)cc2)CCCCC1` the inhibition was inactive: -20.8%. In the case of `COc1cc(C(=O)NCC2(N(C)C)CCCCC2)c([N+](=O)[O-])cc1OC`, the inhibition is reported as inactive: -9.39%. With `COc1ccc(Br)c(C(=O)NCC2(N3CCCCC3)CCCCC2)c1` the inhibition was inactive: -12.2%. In the case of `CN(C)c1cccc(C(=O)NCC2(N(C)C)CCCCC2)c1`, the inhibition is reported as inactive: -42.8%. For `CC(C)Oc1ccc(C(=O)NCC2(N(C)C)CCCCC2)cc1`, the inhibition was inactive: 2.77%. In the case of `O=C(OCCN1CCCC1)C(O)(c1ccccc1)c1ccccc1`, the inhibition is reported as inactive: -20.2%. With `O=C(OC1CN2CCC1CC2)C(CO)(c1ccccc1)c1ccccc1` (stereo not given) the inhibition was inactive: -2.67%.
